Experimental data from ChEMBL document CHEMBL3120163, “Octulosonic acid derivatives from Roman chamomile (Chamaemelum nobile) with activities against inflammation and metabolic disorder” (J Nat Prod, 2014).

Chains of the proteins cited; added tags and fusions are not shown. Lines headed by an entry give the natural chain unless they say otherwise; changes in a name come on top.
UniProt Q13133, whole entry: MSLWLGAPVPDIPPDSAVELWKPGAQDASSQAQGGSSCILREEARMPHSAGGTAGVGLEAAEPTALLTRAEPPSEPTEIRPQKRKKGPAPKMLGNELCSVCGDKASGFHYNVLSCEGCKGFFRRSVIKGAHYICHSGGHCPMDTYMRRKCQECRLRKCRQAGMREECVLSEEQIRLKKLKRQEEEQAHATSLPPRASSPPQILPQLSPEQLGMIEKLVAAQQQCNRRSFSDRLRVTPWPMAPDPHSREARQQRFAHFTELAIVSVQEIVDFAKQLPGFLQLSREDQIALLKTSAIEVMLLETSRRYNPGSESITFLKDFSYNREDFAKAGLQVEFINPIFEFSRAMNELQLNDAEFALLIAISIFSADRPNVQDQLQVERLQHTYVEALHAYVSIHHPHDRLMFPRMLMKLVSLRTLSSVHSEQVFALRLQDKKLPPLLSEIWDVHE
UniProt P37231: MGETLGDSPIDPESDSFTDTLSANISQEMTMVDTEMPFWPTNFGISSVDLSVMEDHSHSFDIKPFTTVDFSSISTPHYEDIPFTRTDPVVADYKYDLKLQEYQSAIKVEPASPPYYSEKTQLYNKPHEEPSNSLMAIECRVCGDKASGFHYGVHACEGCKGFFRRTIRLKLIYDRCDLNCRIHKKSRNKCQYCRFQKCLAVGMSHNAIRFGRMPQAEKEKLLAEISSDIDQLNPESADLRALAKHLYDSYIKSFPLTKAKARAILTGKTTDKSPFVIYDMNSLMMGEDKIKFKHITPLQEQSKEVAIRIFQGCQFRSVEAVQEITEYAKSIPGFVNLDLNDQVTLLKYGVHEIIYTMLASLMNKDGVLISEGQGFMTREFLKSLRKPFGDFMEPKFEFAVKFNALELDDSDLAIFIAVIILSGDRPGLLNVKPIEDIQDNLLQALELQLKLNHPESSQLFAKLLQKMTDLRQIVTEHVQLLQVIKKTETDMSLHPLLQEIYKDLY

Legend:
Type in all cases: cell-based
[1] = target: Oxysterols receptor LXR-alpha (Homo sapiens) (UniProt Q13133); assay: Activation of LXRalpha in human HepG2 cells at 30 uM after 24 hrs by luciferase reporter gene assay relative to vehicle-treated control
[2] = target: T1, Peroxisome proliferator-activated receptor alpha (Homo sapiens) (UniProt Q07869); assay: Activation of PPARalpha in human HepG2 cells at 30 uM after 24 hrs by luciferase reporter gene assay relative to vehicle-treated control
T1 sequence (whole entry): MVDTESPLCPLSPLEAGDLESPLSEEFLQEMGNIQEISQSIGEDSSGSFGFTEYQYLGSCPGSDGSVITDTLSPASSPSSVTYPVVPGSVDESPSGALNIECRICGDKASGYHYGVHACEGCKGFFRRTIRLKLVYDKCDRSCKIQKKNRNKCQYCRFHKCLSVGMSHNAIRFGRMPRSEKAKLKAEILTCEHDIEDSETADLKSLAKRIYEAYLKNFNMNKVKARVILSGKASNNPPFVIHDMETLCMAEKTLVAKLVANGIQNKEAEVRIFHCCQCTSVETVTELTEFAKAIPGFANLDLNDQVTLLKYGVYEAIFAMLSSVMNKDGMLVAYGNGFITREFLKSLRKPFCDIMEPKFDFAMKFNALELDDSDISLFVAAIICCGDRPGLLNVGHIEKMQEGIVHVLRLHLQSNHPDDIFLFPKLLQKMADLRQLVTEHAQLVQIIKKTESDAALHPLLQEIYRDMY

[3] = target: Peroxisome proliferator-activated receptor gamma (Homo sapiens) (UniProt P37231); assay: Activation of PPARgamma in human HepG2 cells at 30 uM after 24 hrs by luciferase reporter gene assay relative to vehicle-treated control
[4] = target: T2, Growth/differentiation factor 15 (Homo sapiens) (UniProt Q99988); assay: Activation of NAG-1 in human SW1353 cells at 50 uM after 24 hrs by luciferase reporter gene assay relative to vehicle-treated control
T2 sequence (whole entry): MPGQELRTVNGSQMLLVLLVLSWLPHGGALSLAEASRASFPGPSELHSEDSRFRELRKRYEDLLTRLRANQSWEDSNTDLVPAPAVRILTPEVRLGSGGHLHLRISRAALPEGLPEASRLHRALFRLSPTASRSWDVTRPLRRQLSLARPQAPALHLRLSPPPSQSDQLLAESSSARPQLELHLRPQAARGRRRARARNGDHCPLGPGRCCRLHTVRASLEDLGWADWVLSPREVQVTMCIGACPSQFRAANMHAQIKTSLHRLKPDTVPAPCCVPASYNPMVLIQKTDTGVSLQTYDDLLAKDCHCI

Row | SMILES | fold change (FC) [1] | fold change (FC) [2] | fold change (FC) [3] | fold change (FC) [4]
1 | COC(=O)[C@]12C[C@@H](OC(=O)/C=C/c3ccc(O)c(O)c3)[C@@H](OC(=O)/C=C/c3ccc(O)c(O)c3)[C@@H](O1)[C@@H](COC(=O)/C=C/c1ccc(O)c(O)c1)O2 (relative stereo) | 1.11 | 1.35 | 2.09 | 2.12
2 | O=C(/C=C/c1ccc(O)c(O)c1)OC[C@H]1O[C@@]2(C(=O)O)C[C@@H](OC(=O)/C=C/c3ccc(O)c(O)c3)[C@@H](OC(=O)/C=C/c3ccc(O)c(O)c3)[C@H]1O2 (relative stereo) | 1.14 | 1 | 1.68 | 2.63
3 | O=C(/C=C/c1ccc(O)c(O)c1)OC[C@H]1O[C@@]2(C(=O)O)C[C@@H](OC(=O)/C=C/c3ccc(O)c(O)c3)[C@@H](O)[C@@H]1O2 (relative stereo) | 1.59 | 1.21 | 1.25 | 2.34

Now from value to compound:

Row | fold change (FC) [1] | fold change (FC) [2] | fold change (FC) [3] | fold change (FC) [4] | SMILES
4 | 1.06 | 1.43 | 1.59 | 2.3 | COC(=O)[C@]12C[C@@H](OC(=O)/C=C/c3ccc(O)c(O)c3)[C@@H](O)[C@H](O1)[C@@H](COC(=O)/C=C/c1ccc(O)c(O)c1)O2 (relative stereo)
5 | 1.22 | 1.09 | 1.04 | 3.1 | COC(=O)[C@]12C[C@@H](O)[C@@H](O)[C@H](O1)[C@@H](COC(=O)/C=C/c1ccc(O)c(O)c1)O2 (relative stereo)
6 | 1.12 | 1.2 | 1.18 | 3.2 | O=C(/C=C/c1ccc(O)c(O)c1)OC[C@H]1O[C@@]2(C(=O)O)C[C@@H](O)[C@@H](O)[C@@H]1O2 (relative stereo)
